# From patent EP0429856A2, “Pharmaceutical preparation containing a metal salt of ibuprofen and process for making same” (Dolorgiet GmbH & Co. KG, priority 1989, dated 1991)
# Test: Solubility of ibuprofen salts in saturated solutions at room temperature (HPLC, UV detection)
# Source text: Zur Bestimmung der Löslichkeit der Ibuprofen-Salze werden bei Raumtemperatur gesättigte Lösungen hergestellt. Ein aliguoter Teil dieser Lösungen wird mit einem mit der Lösung mischbaren Lösungsmittel verdünnt und der Gehalt an Ibuprofen mittels HPLC über eine Reversed-Phase-Säule und UV-Detektion bestimmt.
substance,measurement,setting,value
Ibuprofen-Calciumsalz,Löslichkeit von Ibuprofen-Salzen bei Raumtemperatur,"1,2-Propandiol",330 mg Ibuprofen/ml
same,Löslichkeit von Ibuprofen-Salzen bei Raumtemperatur,"1,2-Propandiol/Glycerin/Wasser (2/4/3;v/v/v)",7 mg Ibuprofen/ml
same,Löslichkeit von Ibuprofen-Salzen bei Raumtemperatur,"1,2-Propandiol/Polyethylenglykol 400/Wasser (5/3/6;v/v/v)",3 mg Ibuprofen/ml
same,Löslichkeit von Ibuprofen-Salzen bei Raumtemperatur,Cabrylic/Capric Triglyceride (Miglyol 810),"0,4 mg Ibuprofen/ml"
same,Löslichkeit von Ibuprofen-Salzen bei Raumtemperatur,Caprylic/Capric Triglyceride (Miglyol 812),"0,2 mg Ibuprofen/ml"
same,Löslichkeit von Ibuprofen-Salzen bei Raumtemperatur,Ethanol,100 mg Ibuprofen/ml
same,Löslichkeit von Ibuprofen-Salzen bei Raumtemperatur,"Ethanol/1,2-Propandiol/Wasser (1/4/4;v/v/v)",12 mg Ibuprofen/ml
same,Löslichkeit von Ibuprofen-Salzen bei Raumtemperatur,Glycerin,20 mg Ibuprofen/ml
same,Löslichkeit von Ibuprofen-Salzen bei Raumtemperatur,Isopropylmyristat,"0,3 mg Ibuprofen/ml"
same,Löslichkeit von Ibuprofen-Salzen bei Raumtemperatur,Paraffinum supl.,"< 0,1 mg Ibuprofen/ml"
same,Löslichkeit von Ibuprofen-Salzen bei Raumtemperatur,Polyethylenglykol 400,38 mg Ibuprofen/ml
same,Löslichkeit von Ibuprofen-Salzen bei Raumtemperatur,Polyoxyethylen-(7)-glycerin-kokosnußöfettsäure-ester,10 mg Ibuprofen/ml
same,Löslichkeit von Ibuprofen-Salzen bei Raumtemperatur,Polyoxyethylierte Olein-Glyceride (Labrafil M 1944 CS),37 mg Ibuprofen/ml
same,Löslichkeit von Ibuprofen-Salzen bei Raumtemperatur,Wasser,3 mg Ibuprofen/ml
